Measurements reported in patent US6855807B1 (priority 1999, dated 2005).

The chains behind the UniProt entries cited, without tags or fusion partners. Where a name states a change or a piece, a line headed by the entry shows the natural chain unless it says otherwise.
UniProt P32300, whole entry, looked up: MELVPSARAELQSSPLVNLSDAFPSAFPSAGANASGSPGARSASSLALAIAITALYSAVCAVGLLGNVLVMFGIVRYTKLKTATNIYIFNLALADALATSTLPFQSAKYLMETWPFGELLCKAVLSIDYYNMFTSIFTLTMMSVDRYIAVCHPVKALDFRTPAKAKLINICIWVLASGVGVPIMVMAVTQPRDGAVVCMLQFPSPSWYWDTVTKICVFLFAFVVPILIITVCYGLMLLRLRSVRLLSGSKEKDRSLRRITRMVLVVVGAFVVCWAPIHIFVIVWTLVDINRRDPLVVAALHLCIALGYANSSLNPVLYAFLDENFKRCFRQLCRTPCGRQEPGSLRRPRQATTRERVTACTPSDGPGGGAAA
UniProt P34975: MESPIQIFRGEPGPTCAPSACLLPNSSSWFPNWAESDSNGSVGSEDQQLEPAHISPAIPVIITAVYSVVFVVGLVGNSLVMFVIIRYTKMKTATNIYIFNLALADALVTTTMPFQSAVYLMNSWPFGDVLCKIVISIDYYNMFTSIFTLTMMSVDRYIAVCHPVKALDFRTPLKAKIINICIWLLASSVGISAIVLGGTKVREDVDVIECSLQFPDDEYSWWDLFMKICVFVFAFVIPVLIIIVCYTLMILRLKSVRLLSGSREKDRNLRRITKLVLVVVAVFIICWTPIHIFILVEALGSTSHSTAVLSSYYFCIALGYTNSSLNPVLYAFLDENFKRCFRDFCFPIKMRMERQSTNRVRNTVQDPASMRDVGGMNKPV

Legend:
kappa-delta heterodimer = kappa-delta heterodimer (UniProt P32300+P34975); settings: read-out: Kappa-Delta (Ki); ligand alone; 0.5 nM 3H-diprenorphine; mean ± SEM (n = 3-4)
kappa opioid receptor = kappa opioid receptor (Rattus norvegicus, UniProt P34975); settings: read-out: Kappa (Ki); ligand alone; competition with 3H-diprenorphine; mean ± SEM (n = 3-4)

Question: How did the Ki (kappa-delta heterodimer) turn out when CO[C@]12CC[C@@]3(C[C@@H]1C(C)(C)O)[C@H]1Cc4ccc(O)c5c4[C@@]3(CCN1CC1CC1)[C@H]2O5 was run?
Answer: 0.3 nM

Question: What about the Ki (kappa opioid receptor) of the same compound?
Answer: 0.71 nM
